Target: T1, LNK SH2 domain (Mus musculus, UniProt O09039)
T1 construct: DNA encoding the mouse LNK SH2 domain (residues 324–446) and an N-terminal NusA; NusA (N, cleaved yes); made in house; host or cells: E. coli (tuner (DE3), BL21(DE3) or C43)
Experiment: SPR competition assay (immobilised IL6ST pY757 peptide)
Format: binding
Experimental: SH2 domains typically bind ligands with a specific preference for amino acids at the −2 to +5 positions, relative to phosphotyrosine. […] To determine the contribution of individual residues, we made a series of mutations within the JAK2 phosphopeptide, and measured their affinity for the LNK SH2 domain via a surface plasmon resonance (SPR) competition assay (Fig. 3). The LNK SH2 domain was incubated with increasing concentrations of mutant JAK2 pY813 peptides before being passed over a chip coated with an immobilised low affinity phosphopeptide derived from a site on the intracellular domain of the IL-6 receptor, IL6ST. […] The +2 residue was not mutated as the structure indicates its sidechain points towards solvent.
The LNK SH2 domain has been proposed to interact with a suite of phosphorylated sites on various signalling proteins[16]–[19],[32]. […] In addition, binding to the activation loops of JAK2 and IRK, and pY785 of JAK3 were also examined. […]
SPR competition assays were performed on either a Biacore 4000 or 200 (GE Healthcare) in 10 mM HEPES (pH 7.4), 150 mM NaCl, 3.4 mM EDTA, 0.005% Tween 20 using a streptavidin coated chip and were regenerated in 50 mM NaOH, 1 M NaCl. […] Data was analysed using Prism, the response of LNK in the presence of the peptide was normalised to an LNK only control and then fitted as an IC50 curve via non-linear regression.

By UniProt entry, the sequences of proteins in these tests, tags left out. Residues count along the entry.
UniProt O09039, 324-446: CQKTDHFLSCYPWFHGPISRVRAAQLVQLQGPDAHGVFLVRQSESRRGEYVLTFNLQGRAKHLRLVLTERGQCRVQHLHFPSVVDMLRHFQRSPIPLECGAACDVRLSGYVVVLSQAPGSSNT

## CC(C)C[C@H](NC(=O)[C@H](CCCNC(=N)N)NC(=O)[C@H](CCCNC(=N)N)NC(=O)[C@H](Cc1ccc(OP(=O)(O)O)cc1)NC(=O)[C@H](Cc1c[nH]cn1)NC(=O)[C@H](C)NC(=O)[C@@H]1CCCN1C(=O)[C@@H](N)Cc1ccccc1)C(=O)N[C@@H](CCCNC(=N)N)C(=O)N[C@@H](Cc1c[nH]cn1)C(=O)N[C@@H](C)C(=O)N[C@@H](Cc1c[nH]c2ccccc12)C(=O)O [MPL pY521]
  IC50: > 10 µM

— publication PMC8528861, “Structural and functional analysis of target recognition by the lymphocyte adaptor protein LNK” (Nature Communications, 2021)
